Assay results published in patent US7316928B2, “Plant fatty acid amide hydrolases” (The University of North Texas, priority 2003, dated 2008).
Where two headings read alike, the source gives them in different places.

Chains of the proteins cited; added tags and fusions are not shown.
UniProt Q7XJJ7, whole entry: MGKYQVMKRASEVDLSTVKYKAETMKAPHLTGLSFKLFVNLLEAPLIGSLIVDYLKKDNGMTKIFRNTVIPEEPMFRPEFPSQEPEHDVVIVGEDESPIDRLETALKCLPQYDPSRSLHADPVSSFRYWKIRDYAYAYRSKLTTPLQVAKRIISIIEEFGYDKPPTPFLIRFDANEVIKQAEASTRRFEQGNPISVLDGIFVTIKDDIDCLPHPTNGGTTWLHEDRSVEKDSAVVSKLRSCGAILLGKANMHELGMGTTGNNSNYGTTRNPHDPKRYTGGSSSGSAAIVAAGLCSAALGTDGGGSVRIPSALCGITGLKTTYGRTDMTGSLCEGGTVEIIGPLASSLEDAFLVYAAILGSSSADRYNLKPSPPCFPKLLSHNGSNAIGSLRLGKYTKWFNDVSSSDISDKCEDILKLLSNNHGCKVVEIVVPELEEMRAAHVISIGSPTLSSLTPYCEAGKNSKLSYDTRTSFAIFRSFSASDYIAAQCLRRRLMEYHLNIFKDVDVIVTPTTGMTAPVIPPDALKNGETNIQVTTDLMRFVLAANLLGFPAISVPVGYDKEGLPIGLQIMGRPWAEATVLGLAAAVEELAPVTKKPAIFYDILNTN

Molecular target: Arabidopsis NAE amidohydrolase (FAAH) (Arabidopsis thaliana, UniProt Q7XJJ7)
Details: for Specific Activity: 30 min at 30° C.

SMILES: CCCCC/C=C\C/C=C\C/C=C\C/C=C\CCCCOP(=O)(F)OC (stereo not shown)
- Specific Activity (0.1 nM inhibitor): 9.69 ± 0.89 μmol h^−1 mg^−1 Protein
- Specific Activity (1 nM inhibitor): 5.62 ± 0.56 μmol h^−1 mg^−1 Protein
- effect on NAE hydrolysis by the Arabidopsis enzyme (10 nM inhibitor): completely eliminated
- Specific Activity (10 nM inhibitor): 0.00 ± 0.00 μmol h^−1 mg^−1 Protein
